ChEMBL document CHEMBL1129637, “Conformationally defined 6-s-trans-retinoic acid analogs. 3. Structure-activity relationships for nuclear receptor binding, transcriptional activity, and cancer chemopreventive activity” (J Med Chem, 1996)

The chains behind the UniProt entries cited, without tags or fusion partners.
UniProt P62965, whole entry: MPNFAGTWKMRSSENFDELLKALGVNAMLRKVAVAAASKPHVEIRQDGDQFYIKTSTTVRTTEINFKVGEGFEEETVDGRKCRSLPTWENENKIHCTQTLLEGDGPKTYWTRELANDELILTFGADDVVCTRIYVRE
UniProt P11416, whole entry: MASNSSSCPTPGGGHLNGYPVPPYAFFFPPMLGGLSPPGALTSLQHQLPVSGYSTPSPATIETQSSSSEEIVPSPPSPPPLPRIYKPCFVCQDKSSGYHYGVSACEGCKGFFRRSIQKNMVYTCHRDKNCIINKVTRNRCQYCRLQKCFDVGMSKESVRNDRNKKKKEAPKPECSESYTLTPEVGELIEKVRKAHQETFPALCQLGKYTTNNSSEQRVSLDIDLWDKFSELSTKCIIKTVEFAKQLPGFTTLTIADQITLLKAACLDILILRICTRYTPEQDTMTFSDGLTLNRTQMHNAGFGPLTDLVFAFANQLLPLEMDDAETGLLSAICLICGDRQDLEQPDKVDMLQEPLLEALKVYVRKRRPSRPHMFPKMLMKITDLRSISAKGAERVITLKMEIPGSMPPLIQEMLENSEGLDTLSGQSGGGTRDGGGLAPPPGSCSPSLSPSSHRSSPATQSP

Tests used:
[1] = target: Cellular retinoic acid-binding protein 1 (Mus musculus, UniProt P62965); test: Inhibition of [3H]ATRA binding to murine Cytoplasmic retinoic acid binding protein (CRABP) type 1
[2] = target: Retinoic acid receptor alpha (Mus musculus, UniProt P11416); test: Inhibition of [3H]ATRA binding to mouse Retinoic acid receptor RAR alpha
Summary of the method: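 Radioligand competition assay for RARα, measuring inhibition of [3H]-(all-E)-RA binding by unlabeled retinoid over a dose series to derive IC50.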

Row | SMILES | Kd [1] [nM] | IC50 [2] [nM]
1 | CC1=C(/C=C/C(C)=C\C=C\C(C)=C\C(=O)O)C(C)(C)CCC1 [ALITRETINOIN] | > 200 | 31
2 | CC1=C(/C=C/C(C)=C/C=C/C(C)=C/C(=O)O)C(C)(C)CCC1 [TRETINOIN] | – | 6
